Reference: patent publication US7223725 (AMYLIN PHARMACEUTICALS, dated 2007)

Target: GLP-1 receptor (on RINm5f membranes) (UniProt P32301)
Assay: displacement of [125I]GLP-1 or [125I]exendin(9-39) from RINm5f membranes, filtration

Exendin-4 (peptide)
IC50: 0.7 nM
